Data: patent publication US8936787B2, “Peptides promoting lipid efflux” (The United States of America as represented by the …, priority 2008, dated 2015)

Test system: red blood cells
Assay: Red blood cell hemolysis assay
Assay type: cell-based
Conditions: 1 hour at 37° C., maximum dose tested
Experimental: FIG. 9 is a graph illustrating red blood cell lysis by the 37pA peptide and derivative peptides (1A, 2A, 3A, 4A, 5A, and 10A). Red blood cells were incubated with the indicated concentration of the peptides for 1 hour at 37° C. Results are expressed as the mean of triplicates ±1 SD.
The 37pA peptide and all of the modified peptides were then tested for cytotoxicity, using a red blood cell hemolysis assay (FIG. 9). […] Approximately 25% of the red blood cells were lysed after 1 hour at the maximum dose tested (FIG. 9). Overall, the modified peptides containing the Ala substitutions were less cytotoxic, and the degree of cytotoxicity closely correlated with the number of Ala substitutions.

DWLKAFYDKVAEKLKEAFPDWLKAFYDKVA EKLKEAF [37pA, reference compound]
red blood cells lysed (hemolysis): Approximately 25%
